Reference: patent US20040072162A1, “Hiv peptides and nucleic acids encoding them for diagnosis and control of hiv infection” (priority 2000, published 2004)

Molecular target: HLA-A2 MHC-I (HLA-A*0204, affinity purified from the EBV transformed cell line RML) (human)

Row | Binder | Kd
1 | FVNTPPLV (modifications not checked) [8.111nat (4.119)] | 32 nM
2 | KIKPPLPSV (modifications not checked) [8.10natl] | 25 nM
